Measurements: PubChem BioAssay (NCI)
The list shows a part of the results, in another mix than the full data.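 Step 1: grow cells in 96-well plates. Step 2: add test compound at a single concentration. Step 3: incubate 48 h. Step 4: record percent growth.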 Calls of active or inactive are those of the source. The calls were made as follows: active = growth percent below 10; inactive = the rest.

Experiments:
Test in all cases: NCI-60 one-dose screen, 48 h (100 = growth as untreated, 0 = no growth, -100 = all killed)
Settings in all cases: 10 µM unless noted
NCI-H23 lung = test system: NCI-H23 lung
NCI-H226 lung = test system: NCI-H226 lung
NCI-H322M lung = test system: NCI-H322M lung
HOP-62 NSCLC = test system: HOP-62 NSCLC
NCI-H460 lung = test system: NCI-H460 lung
HOP-92 NSCLC = test system: HOP-92 NSCLC
NCI-H522 lung = test system: NCI-H522 lung
A549/ATCC NSCLC = test system: A549/ATCC NSCLC
786-0 renal = test system: 786-0 renal
COLO 205 colon = test system: COLO 205 colon
DU-145 prostate = test system: DU-145 prostate
K-562 leukemia = test system: K-562 leukemia
MALME-3M melanoma = test system: MALME-3M melanoma
MDA-MB-231 breast = test system: MDA-MB-231 breast
RXF 393 renal = test system: RXF 393 renal
SF-268 CNS = test system: SF-268 CNS
SF-295 CNS = test system: SF-295 CNS
SF-539 CNS = test system: SF-539 CNS
UACC-257 melanoma = test system: UACC-257 melanoma
M14 melanoma = test system: M14 melanoma

Compound	growth (NCI-H23 lung)	growth (NCI-H226 lung)	growth (NCI-H322M lung)	growth (HOP-62 NSCLC)	growth (NCI-H460 lung)	growth (HOP-92 NSCLC)	growth (NCI-H522 lung)	growth (A549/ATCC NSCLC)	growth (786-0 renal)	growth (COLO 205 colon)	growth (DU-145 prostate)	growth (K-562 leukemia)	growth (MALME-3M melanoma)	growth (MDA-MB-231 breast)	growth (RXF 393 renal)	growth (SF-268 CNS)	growth (SF-295 CNS)	growth (SF-539 CNS)	growth (UACC-257 melanoma)	growth (M14 melanoma)
O=P(CCl)(Sc1ccc(Cl)cc1)N(CCCl)CCCl (stereo not given)	inactive: 98.1%	inactive: 88.2%	inactive: 102%	inactive: 113%	inactive: 100%	inactive: 60.9%	inactive: 80.4%	inactive: 86.1%	inactive: 97.2%	inactive: 104%	inactive: 103%	inactive: 103%	inactive: 108%	inactive: 102%	inactive: 96%	inactive: 96.1%	inactive: 95.8%	inactive: 93.9%	inactive: 82.5%	inactive: 106%
O=[N+]([O-])c1cccc(Oc2ccc([N+](=O)[O-])cc2[N+](=O)[O-])c1	inactive: 26.3%	inactive: 25.9%	inactive: 115%	inactive: 65.7%	active: 3.4%	inactive: 62.7%	active: -21.4%	inactive: 78.9%	inactive: 19%	active: -13.6%	active: 9.62%	inactive: 20.2%	inactive: 40.4%	inactive: 27.4%	active: 8.19%	inactive: 18.2%	active: -13.9%	active: 6.24%	inactive: 39.7%	active: 7.47%
Nc1nnc(N)nn1	inactive: 100%	inactive: 99.1%	inactive: 105%	inactive: 104%	inactive: 119%	inactive: 91.1%	inactive: 105%	inactive: 104%	inactive: 109%	inactive: 121%	inactive: 119%	inactive: 125%	inactive: 97.6%	inactive: 104%	inactive: 113%	inactive: 106%	inactive: 91.8%	inactive: 99.4%	inactive: 111%	inactive: 113%
CCOC(=O)NC(c1ccccc1[N+](=O)[O-])P(=O)(O)Nc1ncn[nH]1 (stereo not given)	inactive: 98.2%	inactive: 84.2%	inactive: 106%	inactive: 94.5%	inactive: 116%	inactive: 99.9%	inactive: 97.5%	inactive: 120%	inactive: 113%	inactive: 116%	inactive: 108%	inactive: 99.1%	inactive: 104%	inactive: 102%	inactive: 117%	inactive: 110%	inactive: 101%	inactive: 96.3%	inactive: 113%	inactive: 107%
CCOC(=O)Nc1ccc([As](=O)(O)O)c(O)c1	inactive: 105%	inactive: 106%	inactive: 99.8%	inactive: 112%	inactive: 105%	inactive: 97.9%	inactive: 102%	inactive: 106%	inactive: 103%	inactive: 104%	inactive: 110%	inactive: 94.6%	inactive: 111%	inactive: 101%	inactive: 135%	inactive: 103%	inactive: 105%	inactive: 90.8%	inactive: 113%	inactive: 107%
O=S1(=O)CC(Sc2ccccc2)[C@@H](Cl)C1 (stereo not given in full)	inactive: 109%	inactive: 96.8%	inactive: 112%	inactive: 95.3%	inactive: 104%	inactive: 91.1%	inactive: 87%	inactive: 92.4%	inactive: 105%	inactive: 112%	inactive: 111%	inactive: 96.3%	inactive: 116%	inactive: 107%	inactive: 106%	inactive: 102%	inactive: 104%	inactive: 107%	inactive: 115%	inactive: 102%
O=P(Cl)(N1CCCCCC1)N1CCCCCC1	inactive: 103%	inactive: 99.5%	inactive: 109%	inactive: 108%	inactive: 109%	inactive: 105%	inactive: 102%	inactive: 95.7%	inactive: 105%	inactive: 113%	inactive: 112%	inactive: 103%	inactive: 103%	inactive: 106%	inactive: 115%	inactive: 101%	inactive: 103%	inactive: 93.5%	inactive: 101%	inactive: 103%
CCc1cc(O)c([N+](=O)[O-])c(C)c1[N+](=O)[O-]	inactive: 102%	inactive: 109%	inactive: 126%	inactive: 112%	inactive: 113%	inactive: 93.3%	inactive: 103%	inactive: 93.2%	inactive: 116%	inactive: 114%	inactive: 112%	inactive: 120%	inactive: 111%	inactive: 107%	inactive: 113%	inactive: 106%	inactive: 109%	inactive: 108%	inactive: 97.5%	inactive: 107%
